Results on one compound are retold here after EP0706514B1, “COMPOUNDS AND METHODS FOR INHIBITION OF HIV AND RELATED VIRUSES” (MEDIVIR AB, priority 1993, dated 1995).

The target of the test is T1, recombinant HIV-RT (Human immunodeficiency virus type 1 group M subtype B, UniProt P04585).
T1 construct: recombinant HIV-RT (diluted in virus disruption buffer to give 200.000 cpm)
As to the kind of experiment: biochemical. The following applies: Test I. On the procedure:
100 mM Tris-HCl pH 7.6, 100 mM KCl, 4 mM MgCl2, 4 mM DTT, 275 mg/ml BSA, 0.5 mg (rA)n(dT)12-18 and 0.3 mM ^3H-=dTTP (specific activity 18.000 cpm/mol). After 60 minutess of incubation 40 ml in duplicate were spotted on paper discs and washed in 5% TCA. After rinsing the paper discs in ethanol they were dried and counted in scintillation fluid.

For orientation: inhibition means the drop in the measured response relative to a control, in per cent. For orientation: % inhibition means the percentage by which the read-out fell short of the control. Turning to `CCOc1ccc(F)c(CCNC(=O)Nc2ccc(Br)cn2)c1Cl`, the inhibition at 0.01 µg/mL was 82%. For the same compound, the “% inhibition” value (0.01 µg/ml) came to 83%.
